These results are taken from US6060516A, “N^1 -propargylhydrazines, N^2 -propargylhydrazines and their analogs for the treatment of depression, anxiety and neurodegeneration” (CV Technologies, Inc., priority 1998, dated 2000).

Molecules are shown by their SMILES.

Test [1] deals with rat brain and liver monoamine oxidase-B. Nature of the test: Monoamine oxidase-B inhibiting activity ex vivo. The settings on record: 5.75 μmol/kg, 5 hr, i.p. in 10% DMSO (Table 4, MAO-B by title). As for the experimental part:
(§1) Radiolabelled β-phenylethylamine was employed as a substrate for monoamine oxidase-B. The compounds of interest were either injected intraperitoneally in DMSO or administered by gavage in water for various periods. The animals were killed by decapitation and the brains and livers immediately removed and frozen until assayed for monoamine oxidase-B activity. Tissues were homogenized and appropriately diluted in buffer prior to incubation. Incubations proceeded at 37° C. for 10 minutes. Incubation was terminated by the addition of acid and the radiolabelled product (phenylacetic acid) was extracted and quantified by liquid scintillation counting procedures. Incubations were done in triplicate and incubations containing phenelzine were included for comparison. The percent inhibition of monoamine oxidase-B activity compared to controls containing no drug was calculated.
Values are the mean ± the standard error based on (n) determinations.
Oral doses were administered as 75 μmol/kg on day 1, 75 μmol/kg on
day 2 and the animals were killed 5 hours later.

The next test concerns MAO-B. Nature of the test: MAO-B inhibition ex vivo in DSP-4 treated mice (brain). Further details: species or system mouse. As for the experimental part:
as §1, with “Biochem. Pharmacol. 31: 1417-1424. Radiolabelled” for “Radiolabelled”
Neuroprotectant activity was evaluated by examining the prevention of DSP-4 induced noradrenaline depletion in mouse hippocampus as described in Yu, P. H., Davis, B. A., Fang, J. and Boulton, A. A. (1994), Neuroprotective effect of some monoamine oxidase-B inhibitors against DSP-4 induced noradrenaline depletion in the mouse hippocampus, J. Neurochem. 63: 1820-1828. Briefly, mice were injected (i.p.) with either 20% DMSO or potential neuroprotectants (10 mg/kg in 20% DMSO). […]

For test [2], the system named is serotonin uptake in rat striatal prisms. Put plainly: Serotonin (5-HT) uptake inhibition in rat striatal prisms in vitro. The test is classed as biochemical. As for the experimental part: CVT-P040 was evaluated for the ability to inhibit serotonin uptake in rat striatal prisms using the procedure of Martin, I. L., Baker, G. B. and Mitchell, P. R. (1978), The effect of viloxazine hydrochloride on the transport of noradrenaline, dopamine, 5-hydroxytryptamine and γ-aminobutyric acid in rat brain tissue Neuropharmacology 17: 421-423. Briefly, untreated rats were killed by guillotine decapitation, their brains removed, placed on an ice-cooled plate and the striatum was dissected out from the rest of the brain. The striatum was then chopped into 0.1×0.1×2 mm prisms using a Mcllwain tissue chopper and suspended in 5 volumes incubation medium containing 123 mM sodium chloride, 5 mM potassium chloride, 2.7 mM calcium chloride, 1.2 mM magnesium sulphate, 20 mM TRIS-HCl buffer (pH 7.5), 1 mM ascorbic acid, 10 mM glucose and 12.5 μM nialamide. The suspension was stored out of direct light and buried in ice. Aliquots (1 ml) of the tissue suspension were added to flasks containing 4 ml of incubation medium and this mixture was incubated for 15 min at 37° C. in a shaking water bath. Next, 10 µl of the appropriate chemical was added to each tube except the blanks and controls, followed by the addition of 10 μl of ^3 H-5-HT (final concentration 0.1 μM). The mixtures were incubated for 5 min at 37° C., then quickly filtered with a Millipore vacuum filter apparatus and rinsed two times with 5 ml warm (37° C.) incubation medium. Filters were transferred to scintillation vials and 10 ml Ready Safe scintillation cocktail was added to each. Radioactive content per tube was counted using a liquid scintillation spectrophotometer. Percent 5-HT uptake inhibition was calculated by applying the following equation: [formula]

Turning to `C#CCN(C)[C@H](C)Cc1ccccc1` [(-)-deprenyl, reference compound], the figures for the “% Inhibition of Monoamine Oxidase-B” value in test [1] (brain) and in test [1] (liver) were 42.0 ± 9.9% and 63.7 ± 2.0%, respectively. For the same molecule, the “MAO-B % Inhibition” value is 64.8 ± 2.5% with MAO-B (10 mg/kg i.p. then DSP-4 50 mg/kg, 20% DMSO control experiment) and 52.3 ± 3.0% in the test with MAO-B (10 mg/kg then DSP-4 50 mg/kg, saline control experiment).
Take `CNCCC(Oc1ccc(C(F)(F)F)cc1)c1ccccc1` (stereo not shown) [Fluoxetine, reference compound]: the “% Inhibition (serotonin uptake)” value in test [2] (1 × 10^4 M (so in the source)) is on record as 93.2 ± 3.5%; in test [2] (1 × 10^-5 M) it was 79.9 ± 8.6%; in test [2] (1 × 10^-6 M) it was 67.7 ± 5.4%.
